Source: US8168667B2 (Galapagos NV, priority 2006, dated 2012)

The chains behind the UniProt entries cited, without tags or fusion partners.
UniProt P10275, whole entry: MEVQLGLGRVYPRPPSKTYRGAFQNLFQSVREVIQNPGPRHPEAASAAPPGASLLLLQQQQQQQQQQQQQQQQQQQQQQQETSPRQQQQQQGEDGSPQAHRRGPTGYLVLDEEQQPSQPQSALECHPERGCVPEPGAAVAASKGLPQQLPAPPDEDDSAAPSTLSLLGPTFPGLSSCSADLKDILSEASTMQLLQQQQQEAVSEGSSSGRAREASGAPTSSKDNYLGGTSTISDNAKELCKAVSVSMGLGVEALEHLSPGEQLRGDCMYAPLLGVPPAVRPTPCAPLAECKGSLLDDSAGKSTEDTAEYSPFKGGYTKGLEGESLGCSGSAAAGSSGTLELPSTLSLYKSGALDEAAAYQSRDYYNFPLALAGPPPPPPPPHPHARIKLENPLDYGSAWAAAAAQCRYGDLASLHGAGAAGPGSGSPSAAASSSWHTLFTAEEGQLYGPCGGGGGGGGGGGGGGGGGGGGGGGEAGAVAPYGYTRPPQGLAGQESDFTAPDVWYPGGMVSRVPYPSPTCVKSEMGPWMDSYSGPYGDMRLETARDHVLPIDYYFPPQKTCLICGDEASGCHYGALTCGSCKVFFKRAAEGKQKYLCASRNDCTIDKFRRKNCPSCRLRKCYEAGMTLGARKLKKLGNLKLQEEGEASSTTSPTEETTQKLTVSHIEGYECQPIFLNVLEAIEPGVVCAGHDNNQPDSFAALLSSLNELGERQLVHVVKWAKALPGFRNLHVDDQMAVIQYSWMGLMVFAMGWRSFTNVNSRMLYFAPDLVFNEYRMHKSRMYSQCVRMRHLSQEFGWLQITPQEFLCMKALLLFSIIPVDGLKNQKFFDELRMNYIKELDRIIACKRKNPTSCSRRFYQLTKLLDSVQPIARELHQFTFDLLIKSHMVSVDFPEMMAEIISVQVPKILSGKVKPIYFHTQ

Target: human androgen receptor (hAR) (Homo sapiens, UniProt P10275)
Test: Functional response test: hAR transactivation (luciferase reporter) in HALP2 cells
Type: cell-based
Details: for EC50: read-out: EC50 (nM) Kd, agonism, HALP2 cells (HeLa, hAR + ARE-luciferase), 20 hours at 37° C.

SMILES | KSchild (nM) potency [nM] | EC50 [nM]
O=C1C(c2ccc(O)cc2)N(Cc2ccsc2)C(=O)N1c1ccc(Cl)cc1Cl (stereo not shown) | 205.98 | 206
CCCCC1(c2ccc(O)cc2)C(=O)N(c2ccc(C#N)c(C(F)(F)F)c2)C(=O)N1C (stereo not shown) | 15 | 15
